Measurements taken from US20160032398A1, “METHODS FOR TREATING CANCER” (COMBIMMUNE, INC., priority 2013, published 2016).

Columns and labels:
CD137 (TNFRSF9) = assay: CD137 expression on tumor-infiltrating leukocytes by FACS (Example 11); format: in vivo, mice; settings: EGFR-expressing B16 tumors, 48 hours after cetuximab; vs control tumors treated with cetuximab; FIG. 14
Experimental: (§1) In a separate experiment, three cohorts of mice were inoculated with B16 melanoma tumors. One group had control tumors, one group had tumors that expressed human EGFR, and the third group had tumors secreting the chemoattractant chemerin, mimicking intratumoral injection or treatment with chemerin. Each group comprised three mice. Tumors were allowed to grow until Day 9. […] Forty-eight hours after the single injection (Day 11), the tumors from all three groups were analyzed for infiltrating NK and T cells, as well as CD137 (TNFRSF9) expression.

B16 melanoma tumors [1] = assay: Control, EGFR-expressing and chemerin-secreting B16 tumors: tumor size (Example 11); format: in vivo, mice; settings: EGFR-expressing B16 tumors treated with cetuximab; Day 11; vs control tumors (not expressing EGFR) treated with cetuximab; FIG. 16
Experimental: as §1
The same tumors from the three groups were analyzed for tumor size (mm^2), a surrogate for clinical outcomes and survival, at pretreatment ([…]) and post-treatment (Day 11).

CD137 = assay: In vitro TGS co-culture of splenocytes and EGFR-expressing B16 melanoma cells: CD137+ cells; format: cell-based, C57BL6 mice; settings: Day 7 of co-culture, vs control without cetuximab
Experimental: In order to determine if the two gene score (TGS) can be evaluated in vitro, a co-culture assay system that utilizes the main components from the tumor microenvironment, namely tumor cells and immune cells, was developed. EGFR-expressing B16 melanoma cells were cultured with whole splenocytes isolated from C57BL6 mice. […] The rational for the experimental design was that the antibody enables and activates NK cells and other cells involved in antibody-dependent cell-mediated cytotoxicity (ADCC) to mediate killing of the tumor cells. The activated immune cells express CD137.

B16 melanoma tumors [2] = assay: Control, EGFR-expressing and chemerin-secreting B16 tumors: tumor-infiltrating leukocytes by FACS (Example 11); format: in vivo, mice; settings: FIG. 13A
Experimental: as §1

cetuximab: therapeutic anti-human EGFR antibody
CD137 expression on total tumor-infiltrating leukocytes (FACS) (CD137 (TNFRSF9)): increase in CD137 expression
tumor size (B16 melanoma tumors [1]): significantly smaller than control tumors
percentage of CD45+ leukocytes that were CD137+ (CD137; FIG. 22A): significantly increased
percentage of NK cells that were CD137+ (CD137; FIG. 22B): significantly increased
percentage of tumor-infiltrating leukocytes (TIL) (B16 melanoma tumors [2]; B16 tumors without EGFR antigen (non-responder), cetuximab Day 9, analysed Day 11): significantly lower percentage of tumor-infiltrating leukocytes
total tumor-infiltrating leukocytes (TIL) (B16 melanoma tumors [2]; EGFR-expressing B16 tumors, cetuximab 200 ug i.p. Day 9, analysed Day 11): increase in total tumor-infiltrating leukocytes
